1 molecule from patent US20090062267A1, “L-ALANINE DERIVATIVES AS a5beta1 ANTAGONISTS” (ASTRAZENECA AB, priority 2007, published 2009) can be followed below.

Amino acid sequences for entries named in this document (tags omitted). Residues count along the entry.
UniProt P08648, 42-1049: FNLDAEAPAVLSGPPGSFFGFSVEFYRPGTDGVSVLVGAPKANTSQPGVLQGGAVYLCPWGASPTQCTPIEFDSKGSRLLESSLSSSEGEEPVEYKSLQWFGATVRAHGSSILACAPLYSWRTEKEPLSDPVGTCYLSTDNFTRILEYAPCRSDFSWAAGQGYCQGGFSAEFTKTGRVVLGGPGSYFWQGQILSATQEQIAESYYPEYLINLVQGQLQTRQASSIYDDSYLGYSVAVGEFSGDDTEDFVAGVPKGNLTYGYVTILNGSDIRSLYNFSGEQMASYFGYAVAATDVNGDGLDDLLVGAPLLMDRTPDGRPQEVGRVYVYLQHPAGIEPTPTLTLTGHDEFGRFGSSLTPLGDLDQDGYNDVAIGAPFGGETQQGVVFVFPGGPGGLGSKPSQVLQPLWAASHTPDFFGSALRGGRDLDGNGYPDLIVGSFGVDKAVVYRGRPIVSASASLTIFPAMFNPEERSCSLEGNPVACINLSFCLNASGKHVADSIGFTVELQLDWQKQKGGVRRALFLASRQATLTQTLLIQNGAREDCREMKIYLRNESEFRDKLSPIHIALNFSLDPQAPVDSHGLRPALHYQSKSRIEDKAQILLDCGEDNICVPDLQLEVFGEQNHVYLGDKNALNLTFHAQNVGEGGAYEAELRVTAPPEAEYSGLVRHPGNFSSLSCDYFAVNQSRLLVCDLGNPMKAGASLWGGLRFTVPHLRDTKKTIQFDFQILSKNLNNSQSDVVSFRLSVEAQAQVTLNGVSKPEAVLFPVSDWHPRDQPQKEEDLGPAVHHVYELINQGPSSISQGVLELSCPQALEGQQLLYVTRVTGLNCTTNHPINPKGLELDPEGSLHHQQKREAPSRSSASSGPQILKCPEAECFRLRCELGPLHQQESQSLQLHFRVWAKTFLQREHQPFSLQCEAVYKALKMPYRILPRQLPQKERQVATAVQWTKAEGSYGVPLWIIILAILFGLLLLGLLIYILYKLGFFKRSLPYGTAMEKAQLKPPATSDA

This experiment deals with recombinant human α5β1 (Homo sapiens, UniProt P05556+P08648). Kind of experiment: In Vitro Binding Assay (a): inhibition of binding of α5β1 integrin to a fragment of human fibronectin (Fn9-10), Origen electrochemiluminescence. The text has this:
The assay determined the ability of compounds to inhibit binding of α5β1 integrin to a cognate ligand, a fragment of human fibronectin. The assay used Origen technology (IGEN International) to measure the compound activity. Briefly, α5β1 integrin was coated onto epoxy-paramagnetic beads (Dynal Biotech UK, Bromborough, Wirral, CH62 3QL, UK, Catalogue No 140.11) and biotinylated-fibronectin ligand was coupled to strepatividin labeled Tag-NHS-Ester (BioVeris Corporation, Witney, Oxfordshire, OX28 4GE, UK, Catalogue No 110034). The ruthenium-labeled tag emits an electrochemiluminescence signal upon stimulation which is detected by the Origen reader. […]
20 μg of recombinant human α5β1 was coated onto 4×10(7) epoxy-paramagnetic beads according to manufacturers instructions at 4° C. for 24 hours. Integrin coating and corresponding activity was subsequently measured for each batch but typically, 25 ng of coated protein was used per assay well. […]
For the assay, 25 ng (20 ul) of a5b1-bead suspension and 40 μl of the Fn9-10/Tag pre-incubated solution were added to each well containing 20 μl of compound or control solution. Assay plates were then incubated at room temperature for a minimum of 6 hours before being analysed on an Origen plate reader. […]

One may read the IC50 as the point on the concentration scale where inhibition reaches its midpoint. In the case of `CNc1cccc(CCOc2ccc(C[C@H](NC(=O)c3c(C)noc3C)C(=O)O)cc2)n1` [Example 1.9, N-[(3,5-dimethylisoxazol-4-yl)carbonyl]-O-{2-[6-(methylamino)pyridin-2-yl]ethyl}-L-tyrosine], the IC50 is 1 nM.
